## Binding of CDR-mutated scFvs to a peptide of the spike HR2 region

Values reported by Li et al. 2023, doi:10.1038/s41467-023-39022-2 (FLAb copy).

Antigen: PDVDLGDISGINAS, a 14-residue peptide of the SARS-CoV-2 spike HR2 region.

Ab-14 is the parent antibody, in scFv form: VH, then the linker GGGGSGGGGSGGGGS, then VL. The heavy chain is unchanged in all variants.
VH: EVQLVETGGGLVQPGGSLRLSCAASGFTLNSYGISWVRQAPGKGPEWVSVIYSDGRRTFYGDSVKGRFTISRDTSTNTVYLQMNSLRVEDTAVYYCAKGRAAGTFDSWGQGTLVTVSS
VL: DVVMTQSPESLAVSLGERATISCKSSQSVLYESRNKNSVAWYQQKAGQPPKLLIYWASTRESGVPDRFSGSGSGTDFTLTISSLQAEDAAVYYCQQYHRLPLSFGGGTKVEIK

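Phage display of a naive human antibody library on the peptide gave the parent. Designed CDR sequences, proposed from the first random library and measured here. Their group label is 14L_En_Gen (En: ensemble of fine-tuned language models; Gen: genetic algorithm). The assay is AlphaSeq: two haploid yeast populations carry antibody and antigen on their surface. The frequency of each diploid, read from paired DNA barcodes, reflects how well the two displayed proteins bind. Each replicate has its own calibration line, from reference interactions of the BCL2 family. Each pool was mated in six replicate cultures.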

The parent's light chain CDRs are KSSQSVLYESRNKNSVA, WASTRES, QQYHRLPLS; each variant's own CDRs replace them letter for letter.
Values are log10 of the apparent Kd in nM; lower means stronger binding.
A mean of the replicates is given; it leaves out those without a signal.
A pair that was not seen in that replicate is written "nd"; this usually means weak binding, but a binder can also be missed.
The range of this assay differs from that of the first round, and the authors advise against merging the two.
Three control strains display no target. For all light chain designs, 4% of the pairings with them gave a signal, with a median of 2.64 and one signal in twenty below 1.59, so weak values seen in few replicates may be background. The control count says in how many pairings with the empty strains this scFv gave a signal, with their mean in brackets.
The authors averaged sequences with at least three values out of six and counted those with two or fewer as poor binders.

{"CDR-L1": "MISQLYNMGQFAINSVA", "CDR-L2": "QASTRNE", "CDR-L3": "QQYERLPLM", "replicates, log10 nM": "0.76 0.35 0.42 0.15 0.12 0.16", "mean, log10 nM": "0.33", "empty controls": "3 of 18 (2.46)"}
{"CDR-L1": "HVSMLTLQGMRHTNSVA", "CDR-L2": "QMTTREN", "CDR-L3": "QQYDRLPLA", "replicates, log10 nM": "0.74 0.13 0.27 0.58 0.68 0.74", "mean, log10 nM": "0.52", "empty controls": "1 of 18 (2.32)"}
{"CDR-L1": "HISMITLQGMRARNSVA", "CDR-L2": "QMTTREN", "CDR-L3": "QQYDRLPLS", "replicates, log10 nM": "0.54 0.36 0.55 0.34 0.18 2.49", "mean, log10 nM": "0.74", "empty controls": "0 of 18"}
{"CDR-L1": "KLSMITGHMSMSKNNVA", "CDR-L2": "EMETREK", "CDR-L3": "QQYNRLPLA", "replicates, log10 nM": "0.37 -0.29 -0.42 -0.58 -0.30 -0.17", "mean, log10 nM": "-0.23", "empty controls": "0 of 18"}
{"CDR-L1": "MISQLHNMGTFAINSVA", "CDR-L2": "QASIRNA", "CDR-L3": "QQYDRLPLT", "replicates, log10 nM": "nd nd nd nd nd nd", "mean, log10 nM": "nd", "empty controls": "0 of 18"}
{"CDR-L1": "KLSGVMRMESKVSNSIA", "CDR-L2": "EVNERPK", "CDR-L3": "QQYDRLPLS", "replicates, log10 nM": "1.28 1.51 1.93 1.84 1.63 1.82", "mean, log10 nM": "1.67", "empty controls": "0 of 18"}
{"CDR-L1": "QIYQAMHTLSQMKDNVA", "CDR-L2": "DVNERGS", "CDR-L3": "QQYYRLPLS", "replicates, log10 nM": "0.18 -0.22 0.00 -0.07 -0.19 0.01", "mean, log10 nM": "-0.05", "empty controls": "0 of 18"}
{"CDR-L1": "KLTMITGLEKVSGNNVA", "CDR-L2": "EMETRER", "CDR-L3": "QQYNRLPLS", "replicates, log10 nM": "0.29 0.28 0.29 0.22 0.43 0.52", "mean, log10 nM": "0.34", "empty controls": "0 of 18"}
{"CDR-L1": "KITATMRFEQKQSNNIA", "CDR-L2": "EVSQRSK", "CDR-L3": "QQYYRLPLA", "replicates, log10 nM": "0.87 1.27 0.72 1.06 0.53 0.36", "mean, log10 nM": "0.80", "empty controls": "0 of 18"}
{"CDR-L1": "MLYGLSVSMSKNTNNVA", "CDR-L2": "EMTTREK", "CDR-L3": "QQYDRLPLI", "replicates, log10 nM": "nd 2.30 1.42 1.37 1.71 2.26", "mean, log10 nM": "1.81", "empty controls": "0 of 18"}
{"CDR-L1": "MIGQMLGWESNKIHSVA", "CDR-L2": "QANLRVE", "CDR-L3": "QQYDRLPLE", "replicates, log10 nM": "0.69 0.48 0.43 0.80 0.75 0.67", "mean, log10 nM": "0.64", "empty controls": "1 of 18 (2.70)"}
{"CDR-L1": "MISQLYNMGQFAINSVA", "CDR-L2": "QASERYN", "CDR-L3": "QQYDRLPLI", "replicates, log10 nM": "2.59 0.77 2.12 1.23 1.90 1.14", "mean, log10 nM": "1.63", "empty controls": "0 of 18"}
{"CDR-L1": "KLTQTMRFEQKSKNNIA", "CDR-L2": "EVTTRSK", "CDR-L3": "QQYDRLPLS", "replicates, log10 nM": "nd 0.78 0.69 0.66 1.21 3.89", "mean, log10 nM": "1.44", "empty controls": "0 of 18"}
{"CDR-L1": "MVNGIMDHLSKQTNNVA", "CDR-L2": "EMTTRED", "CDR-L3": "QQYDRLPLS", "replicates, log10 nM": "1.33 1.22 nd 1.43 1.44 2.13", "mean, log10 nM": "1.51", "empty controls": "0 of 18"}
{"CDR-L1": "IVSQLMLWGYKHKNSIA", "CDR-L2": "EAELRLN", "CDR-L3": "QQYDRLPLI", "replicates, log10 nM": "nd 1.81 1.67 1.89 2.52 2.93", "mean, log10 nM": "2.16", "empty controls": "0 of 18"}
{"CDR-L1": "MISQLWNMGQFAINSVA", "CDR-L2": "QASIRNS", "CDR-L3": "QQYDRLPLM", "replicates, log10 nM": "nd 1.69 1.91 1.52 1.67 nd", "mean, log10 nM": "1.70", "empty controls": "0 of 18"}
{"CDR-L1": "KFSQMANQFSVSMNAVA", "CDR-L2": "EMSTRPE", "CDR-L3": "QQYNRLPLS", "replicates, log10 nM": "0.27 0.66 0.16 0.08 0.20 0.40", "mean, log10 nM": "0.29", "empty controls": "0 of 18"}
{"CDR-L1": "KLSQVTGHLSVEKNNVA", "CDR-L2": "EMETREE", "CDR-L3": "QQYDRLPLS", "replicates, log10 nM": "1.18 0.63 0.91 1.07 1.18 1.66", "mean, log10 nM": "1.10", "empty controls": "1 of 18 (1.72)"}
{"CDR-L1": "IVSQLMLWGYHATNSIA", "CDR-L2": "EAQMRLN", "CDR-L3": "QQYDRLPLF", "replicates, log10 nM": "nd nd nd nd nd nd", "mean, log10 nM": "nd", "empty controls": "0 of 18"}
{"CDR-L1": "HMSALTLQGMRHKNSVA", "CDR-L2": "QMTTREN", "CDR-L3": "QQYDHLPLS", "replicates, log10 nM": "0.46 0.15 0.64 0.15 0.45 0.53", "mean, log10 nM": "0.40", "empty controls": "0 of 18"}
{"CDR-L1": "MMSQVTGMGQRHRNNVA", "CDR-L2": "QTSTREE", "CDR-L3": "QQYDRLPLM", "replicates, log10 nM": "0.89 0.65 0.74 0.53 0.86 1.23", "mean, log10 nM": "0.82", "empty controls": "2 of 18 (2.47)"}
{"CDR-L1": "KVSEFMRGLMSRKDSIA", "CDR-L2": "DNVTRSN", "CDR-L3": "QQYDRLPLS", "replicates, log10 nM": "nd 2.73 2.92 nd 2.67 2.79", "mean, log10 nM": "2.78", "empty controls": "1 of 18 (3.54)"}
{"CDR-L1": "TISQMTSLFSQSINNVA", "CDR-L2": "EVSEREK", "CDR-L3": "QQYDRLPLM", "replicates, log10 nM": "nd 1.77 nd nd 1.47 nd", "mean, log10 nM": "1.62", "empty controls": "0 of 18"}
{"CDR-L1": "HITMGMYVSGRHHSNIA", "CDR-L2": "QAETRAK", "CDR-L3": "QQYDRLPLI", "replicates, log10 nM": "0.98 1.08 1.14 0.53 1.11 1.07", "mean, log10 nM": "0.99", "empty controls": "1 of 18 (2.87)"}

A selection of 3 entries from above:

CDR-L1	CDR-L2	CDR-L3	replicates, log10 nM	mean, log10 nM	empty controls
HITMGMYVSGRHHSNIA	QAETRAK	QQYDRLPLI	0.98 1.08 1.14 0.53 1.11 1.07	0.99	1 of 18 (2.87)
MMSQVTGMGQRHRNNVA	QTSTREE	QQYDRLPLM	0.89 0.65 0.74 0.53 0.86 1.23	0.82	2 of 18 (2.47)
IVSQLMLWGYKHKNSIA	EAELRLN	QQYDRLPLI	nd 1.81 1.67 1.89 2.52 2.93	2.16	0 of 18